Bioassay records as filed in PubChem.
Hits are enriched below; roughly 0.42% of the tested compounds scored in any of these assays.
Rango dissoc inh: prevents RanGTP from dissociating the Rango-importin beta complex; 340,000 compounds, 0.071% hits; Potency, µM (doses to about 46.1 µM), without a hit: at the highest dose activity change, negative = inhibition; Biochemical FRET Rango-importin beta, RanGTP-induced dissociation; AID 540253; O95149+P62826; calls by dose curve; note: % of control where 0% means no effect; nearly all actives have a fitted effect of over 45% in size
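Compounds sat 5 min at room temperature with 0.1 uM Rango biosensor plus 0.25 uM importin beta, then FRET pre-read. RanGTP-RCC1 (0.6 uM Ran, 2mM GTP, 0.2 uM RCC1) added for 45 min, and the CFP/YFP post-read measured blocked complex dissociation.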
Vif-A3F inh: Vif-A3F binding inhibition | HeLa A3F-eYFP + Vif (tagged APOBEC3F with the HIV-1 protein that degrades it), YFP fluorescence increase | Potency, µM (doses to about 46.1 µM), without a hit: at the highest dose activity, negative = active | 390,000 compounds, 0.2% hits; note: % of control where 0% means no effect; nearly all actives have a fitted effect of over 65% in size
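HeLa cells stably expressing Vif plus C-terminally eYFP-tagged A3F were seeded, incubated overnight at 37 deg C, dosed with compound, incubated overnight again at 37 deg C. Yellow fluorescence (Ex 488/Em 500-530) reported blocked Vif-mediated A3F-eYFP degradation.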
Rango-impB inh: Rango-importin beta binding inhibition; Potency, µM (top dose mostly 92.2 µM), without a hit: at the top dose inhibition of complex formation; Q14974; 340,000 compounds, 0.031% hits; Rango CFP/YFP FRET sensor + importin beta, 45 min; AID 540263; calls by dose curve;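 note: 0% = DMSO wells and 100% = buffer wells lacking importin beta; nearly all actives have a fitted effect of over 15% in size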
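Inhibition scored from the CFP 486 nm/YFP 530 nm FRET ratio 45 min after adding 0.125 microM importin beta to 50 nM Rango biosensor preincubated 5 min with compound (room temperature, PBS with DTT, Tween-20, BSA). No-importin wells as positive control.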
Epigenetic derep: epigenetic control regulation, reporter derepression | murine LDR cells, GFP reporter derepression, 30 h | Potency, µM (series often up to 53.9 µM), for the others: at the highest dose GFP activation, hits mostly activators | 280,000 compounds, 0.2% hits; note: % of control where 0% means no effect; nearly all actives have a fitted effect of over 60% in size
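Murine LDR cells carrying a silenced, genomically integrated CMV-driven GFP reporter were exposed to compound for 30 hours at 37 C. After PBS washes, GFP-positive cells (20–120 um objects) were counted by laser-scanning microplate cytometry.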
Vif-A3G inh: inhibitors of Vif-APOBEC3G interaction; HeLa A3G-eYFP + Vif (tagged APOBEC3G with the HIV-1 protein that degrades it), YFP fluorescence, overnight; Potency, µM (highest dose often 46.1 µM), for the others: at the highest dose activity, negative = active, hits mostly inhibitors; 410,000 compounds, 0.076% hits; AID 602310; note: % is set by controls: 0 for no effect and ±100 for the full control effect; nearly all actives have a fitted effect of over 60% in size
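HeLa cells stably expressing Vif and C-terminally eYFP-tagged A3G, seeded overnight at 37 deg C, then exposed to compound by pintool overnight at 37 deg C. Rise in yellow fluorescence (Ex 488/Em 500-530, Acumen) marks blocked Vif-driven A3G degradation.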
* hit, by the source's call; ? = inconclusive; . = not tested or not shown. Unless noted, calls come from the whole dose curve; as a rule, active = well fitted curve in the direction sought with a large enough effect; inconclusive = small, poorly fitted or top-dose-only effect, or another doubt; inactive = no such curve, though single readings can be large; an effect the other way counts as inactive or inconclusive. Potency is the fitted concentration of half-maximal effect.

Structure | Rango dissoc inh | Vif-A3F inh | Rango-impB inh | Epigenetic derep | Vif-A3G inh
CCCOC(=O)/C(=C\c1ccc([N+](=O)[O-])o1)NC(=O)c1ccccc1 | -20% | 7.1µM* | 1% | 0% | ?
CCOC(=O)/C(=C\c1ccc([N+](=O)[O-])o1)NC(=O)c1ccccc1 | -12% | -16% | -4% | 0% | ?
COC(=O)c1cc(NC(=O)c2cccc(Cl)c2)c(=O)oc1/C=C/Nc1cc(C)cc(C)c1 | . | . | . | 3.5µM* | .
CC(C)OC(=O)c1c2c(n3ccccc13)C(=O)c1ccccc1C2=O | ? | ? | 19% | 10µM* | ?
CN(C)c1ccc2nc3c(=O)[nH]c(=O)nc-3n(CC(O)C(O)C(O)CO)c2c1 (stereo not given) | -12% | 8.9µM* | 9% | . | 2%
CCOc1ccc(OCC)c(NC(=O)CCC(=O)N2CCOc3ccccc32)c1 | . | 2% | . | -3% | -3%
Cc1cc(OCC(=O)Nc2nnc(C3CC3)s2)ccc1Cl | . | -1% | . | . | 2.8µM*
COc1cc(/C=C(/C(=O)c2cccs2)c2nc3ccccc3[nH]2)ccc1O | -25% | -15% | 0% | 6% | 10µM*

Additional compounds follow:
Structure | Rango dissoc inh | Vif-A3F inh | Rango-impB inh | Epigenetic derep | Vif-A3G inh
Cc1ccc(S(=O)(=O)/C(C#N)=C/c2c(N3CCC(C(N)=O)CC3)nc3ccccn3c2=O)cc1 | 13µM* | 3% | ? | -6% | 4%
COc1cc(Nc2nc3ccccc3c3nnc(C)n23)cc(OC)c1 | . | 2% | . | 0% | 0%
COc1ccc(C)cc1Nc1n[n+](-c2ccccc2)c(-c2cc([N+](=O)[O-])cc(OC)c2O)s1 | 8% | 22µM* | 4% | . | -9%
Cc1cccc(C=Nc2ccccc2C(N)=O)c1 | -2% | -15% | -3% | -1% | 10µM*
CC(C)(C)NC(=S)NNC(=O)c1cccc(Br)c1 | ? | -4% | 1% | 18µM* | 2%
COc1ccc(CNC(=O)c2ccc(CSc3nc4ccncc4n3Cc3ccccc3F)cc2)cc1 | . | 0% | . | 0% | -2%
O=C(CC1CCCC1)NNC(=O)c1ccccc1O | . | 1% | . | . | -8%
O=C(CCC1CCCC1)NNC(=O)c1cc2ccccc2cc1O | 18µM* | 2% | ? | . | -4%

The closing two records of the part before are carried over, then new ones follow.
Structure | Rango dissoc inh | Vif-A3F inh | Rango-impB inh | Epigenetic derep | Vif-A3G inh
O=C(CC1CCCC1)NNC(=O)c1ccccc1O | . | 1% | . | . | -8%
O=C(CCC1CCCC1)NNC(=O)c1cc2ccccc2cc1O | 18µM* | 2% | ? | . | -4%
CCCC1=[N+](CC(=O)c2ccc(Br)cc2)CCn2cccc21 | -3% | 11µM* | ? | 0% | -23%
CCCC1=[N+](CC(=O)c2ccccc2)CCn2cccc21 | -3% | 1% | ? | 1% | -6%
COc1ccc(/C=C/C(=O)CC(=O)/C=C/c2cccc(O)c2OC)cc1O | . | . | . | 13µM* | .
CCOc1ccc(-n2c(=O)c3c(C)c(C)sc3n(CC(=O)c3ccccc3)c2=O)cc1 | . | 0% | . | 2% | 4%
O=S1(=O)CCO[C@H]2CCCC[C@@H]2N1Cc1ccccc1F | . | . | . | . | -1%
CN(CCCc1cnc[nH]1)C(=S)NCCCN(Cc1ccc(Cl)cc1)c1ccc(Br)cn1 | . | . | . | . | -14%
N#Cc1sc2nc(-c3cccs3)cc(-c3ccc(Cl)cc3)c2c1N | ? | ? | ? | 14µM* | ?
N#Cc1sc2nc(-c3cccs3)cc(-c3ccccc3)c2c1N | ? | ? | ? | ? | 3%

Additional entries.
Structure | Rango dissoc inh | Vif-A3F inh | Rango-impB inh | Epigenetic derep | Vif-A3G inh
Cc1ccc(NC(=O)CCNS(=O)(=O)c2ccc3c(c2)CCN3C(=O)C2CC2)c(Cl)c1 | . | 3% | . | 0% | -1%
O=S(c1ccccc1)c1ccc2nnnn2n1 (stereo not given) | . | . | . | -2% | .
Cn1c(N/N=C/c2cc3ccccc3nc2Cl)nc2ccccc21 | ? | 22µM* | ? | ? | 11µM*
Cn1c(N/N=C/c2c[nH]c3ccccc23)nc2ccccc21 | -3% | -4% | 1% | 0% | 6%
CCOc1cc(/C=C/C(=O)c2ccc(OC)c(CN3CCOCC3)c2)cc(Br)c1O | ? | 25µM* | ? | . | ?
N#C/C(=C\c1ccc[nH]1)C(=O)Nc1ccccc1F | 6% | 3% | -1% | . | 4%
N#C/C(=C\c1ccc[nH]1)C(=O)Nc1ccccc1Cl | 1% | 3% | 16µM* | . | -5%
COc1cccc(CSc2nc3n(n2)C(CC(C)C)C(C(=O)Nc2ccccc2OC)=C(C)N3)c1 (stereo not given) | . | ? | . | 3% | -2%

New compounds follow
Structure | Rango dissoc inh | Vif-A3F inh | Rango-impB inh | Epigenetic derep | Vif-A3G inh
COc1cc(/C=C2\CC(C(C)(C)C)C/C(=C\c3cc(OC)c(OC)c(OC)c3)C2=O)cc(OC)c1OC (stereo not given) | 2% | ? | 0% | . | 8.9µM*
O=Nc1ccc(/C=C/c2ccnc3ccccc23)cc1 | . | . | . | . | 0%
COc1ccc(OC)c(/C=C/c2nc3ccccc3[nH]c2=O)c1 | ? | 22µM* | ? | . | ?
COc1ccc(OC)c(/C=C/c2nc3ccccc3nc2C)c1 | . | . | . | . | -23%
CCCN1CCN(CCCNC(=S)Nc2ccc3nc(N4CCN(CC)CC4)cc(C)c3c2)CC1 | 18% | -20% | 1% | -4% | 7%
Cc1cc(N2CCCC2)nc2ccc(NC(=S)NCCCN3CCC(C)CC3)cc12 | 15µM* | -9% | 3% | -2% | 0%
C=CCN1C(=O)c2ccc(C(=O)N(CC(C)C)c3c(N)n(CCCC)c(=O)[nH]c3=O)cc2C1=O | 7% | ? | 7% | . | 7.9µM*
COc1cc(/C=C2\SC(N)=NC2=O)cc(Cl)c1O | ? | 11µM* | ? | . | -18%

A few values from above:
Under Epigenetic derep, CC(C)OC(=O)c1c2c(n3ccccc13)C(=O)c1ccccc1C2=O shows 10µM*
Under Vif-A3G inh, COc1cc(/C=C2\CC(C(C)(C)C)C/C(=C\c3cc(OC)c(OC)c(OC)c3)C2=O)cc(OC)c1OC (stereo not given) shows 8.9µM*
Under Epigenetic derep, COc1ccc(CNC(=O)c2ccc(CSc3nc4ccncc4n3Cc3ccccc3F)cc2)cc1 shows 0%
Under Rango dissoc inh, CCOC(=O)/C(=C\c1ccc([N+](=O)[O-])o1)NC(=O)c1ccccc1 shows -12%
Under Vif-A3F inh, CCOc1cc(/C=C/C(=O)c2ccc(OC)c(CN3CCOCC3)c2)cc(Br)c1O shows 25µM*
Under Vif-A3F inh, CN(C)c1ccc2nc3c(=O)[nH]c(=O)nc-3n(CC(O)C(O)C(O)CO)c2c1 (stereo not given) shows 8.9µM*

Remaining list, next part
Structure | Rango dissoc inh | Vif-A3F inh | Rango-impB inh | Epigenetic derep | Vif-A3G inh
CCN(CC)c1ccc(/C=C2/SC(=O)N(C(C)C)C2=O)o1 | ? | ? | ? | 11µM* | ?
COc1ccc(CCNC(=O)CSc2ccc3nnc(CCNC(=O)c4ccc(C)cc4)n3n2)cc1OC | 6.5µM* | 7% | ? | . | 0%
Cc1cccc(C(=O)NC(=S)N2CCc3ccccc3C2)c1 | -2% | 8.9µM* | -3% | -1% | 1%
Cc1cccc(C(=O)NCCC(=O)N2CCc3ccccc3C2)c1 | 4% | -4% | -1% | . | 0%
CCOC(=O)c1c(CSc2nc(C)cc(C)c2C#N)n(C)c2cc(Br)c(OC(C)=O)cc12 | 4% | 6% | -6% | 1% | 0%
C=CCCc1ccc(C#N)c(SCc2c(C(=O)OCC)c3cc(OC(C)=O)c(Br)cc3n2C)n1 | 2% | -8% | 2% | 13µM* | 1%
CC(C)C[C@@H](CN=[N+]=[N-])N1CCN(CCc2ccccc2)CCC1=O | . | . | . | . | 2%
CCCCN(C(=O)C1CCC(CNS(=O)(=O)c2cccc3nsnc23)CC1)c1ccccc1 (stereo not given) | . | -16% | . | 0% | -4%

(listing goes on)
Structure | Rango dissoc inh | Vif-A3F inh | Rango-impB inh | Epigenetic derep | Vif-A3G inh
N#Cc1ccccc1NC(=O)CSc1nc(-c2ccccc2)cc(C(F)(F)F)c1C#N | . | 11µM* | . | 13µM* | -30%
Cc1coc(NC(=O)CSc2nc(-c3ccncc3)cc(C(F)(F)F)c2C#N)n1 | 24% | 11µM* | 0% | 13µM* | ?
CCCCOc1ccc(-c2cc(C(F)(F)F)c(C#N)c(SCC(=O)O)n2)cc1 | -21% | 11µM* | -2% | 25µM* | -9%
Cc1ccc(NC(=O)CSc2nc(-c3ccc(F)cc3)cc(C(F)(F)F)c2C#N)cc1 | . | 3% | . | ? | -1%
